The experiment deals with T1, EBP-Ig (N-terminal 225 amino acids of the human EPO receptor joined to an Ig heavy chain) (Homo sapiens, UniProt P19235).
T1 construct: Ig heavy chain (fusion partner); made in house; host or cells: NSO cells (secreted into conditioned media)
T1 sequence (P19235 25-250 limits assumed): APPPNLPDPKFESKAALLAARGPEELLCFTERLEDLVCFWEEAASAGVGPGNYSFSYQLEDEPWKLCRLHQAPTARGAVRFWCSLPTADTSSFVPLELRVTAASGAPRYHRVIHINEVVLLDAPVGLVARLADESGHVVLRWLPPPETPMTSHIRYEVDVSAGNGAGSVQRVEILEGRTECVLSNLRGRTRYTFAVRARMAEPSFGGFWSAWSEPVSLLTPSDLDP
Description: Inhibition of [125I]EPO binding to immobilized EBP-Ig (EPO binding protein-Ig), scintillation Flash plate competition assay. The text has this: The interaction of biotin and streptavidin is frequently employed to capture and effectively immobilize reagents useful in assay protocols and has been employed here as a simple method to capture and immobilize EBP-Ig. EBP-Ig is initially randomly modified with an amine reactive derivative of biotin to produce biotinylated-EBP-Ig. Use of streptavidin coated plates allows the capture of the biotinylated EBP-Ig on the surface of a scintillant impregnated coated well (Flash plates, NEN-DuPont). […] The amount of light produced was quantified to estimate the amount of ligand binding. The specific assay format was suitable for the multi-well plate capacity of a Packard TopCount Microplate Scintillation counter.
Biotinylated EBP-Ig was prepared as follows. EBP-Ig (3 mL, OD280 2.9) was exchanged into 50 mM sodium bicarbonate, pH 8.5 using a Centriprep 10 ultrafiltration device. The final volume of the exchanged protein was 1.2 mL (OD280 2.6, representing about 2 mg total protein). 10 μL of a 4 mg/ml solution of NHS-LC-Biotin (Pierce) was added and the reaction mixture placed on ice in the dark for two hours. Unreacted biotin was removed by exchange of the reaction buffer into PBS in a Centriprep 10 device and the protein reagent aliquoted and stored at −70° C.
All wells were adjusted to a final DMSO concentration of 5%. […] After all additions were made, the plate was covered with an adhesive top seal and placed in the dark at room temperature overnight. The next day all liquid was aspirated from the wells to limit analyte dependent quench of the signal, and the plates were counted on a Packard TOPCOUNT Microplate Scintillation Counter. […] Corrected total binding (CTB) was calculated as: TB−NSB=CTB. […] Table 1 lists the average % inhibition, and if determined the IC50 and IC30 values for compounds of Formula I, where the compound numbers refer to the compounds in the tables accompanying the preparative examples.

pIC50: −log10 of the molar value. Like-named read-outs stand apart in the source and are kept apart here.

`O=C(O)CC(C(=O)O)N(C/C=C/c1cccc(Oc2ccccc2)c1)C/C=C/c1cccc(Oc2ccccc2)c1` (stereo not shown) [compound 108]: the pIC50 was 4.44.
Turning to `COC(=O)C(CCCCN)N(Cc1ccc(OCc2ccccc2)cc1)Cc1ccc(OCc2ccccc2)cc1` (stereo not shown) [compound 110], the negative logarithm of the IC50 (pIC50) was 5.00.
For the compound `O=C(O)CC(C(=O)O)N(CC=Cc1cccc(Oc2ccccc2)c1)CC=Cc1cccc(Oc2ccccc2)c1` (stereo not shown) [cpd 107, N,N-bis(3-Phenoxycinnamyl)Asp-OH], the IC50 (read-out: IC50, μM (Inhibition of EPO binding to EBP-Ig), 0.5 nM [125I]EPO, concentration reducing corrected total binding to 50%) came out at 42 µM.
`O=C(O)CCC(C(=O)NCCOCCOCCNC(=O)C(CCC(=O)O)N(Cc1ccc(OCc2ccccc2)cc1)Cc1ccc(OCc2ccccc2)cc1)N(Cc1ccc(OCc2ccccc2)cc1)Cc1ccc(OCc2ccccc2)cc1` (stereo not shown) [cpd 246, [N,N-bis(4-Benzyloxybenzyl)GluNHCH2CH2OCH2]2] had a negative-log IC50 (pIC50) of 4.12.

The record behind these values is patent publication US7153869B2, “Substituted amino acids as erythropoietin mimetics” (priority 1998, dated 2006).
